Reference: patent US12030897B2, “Pyrrolo[2,1-f][1,2,4]triazine derivatives serving as selective HER2 inhibitors and application thereof” (MEDSHINE DISCOVERY INC., priority 2018, dated 2024)

System: NCI-N87 cell
Experiment: Cell proliferation inhibitory activity, Cell-Titer-Glo, NCI-N87
Settings: read-out: NCI-N87 cell IC50; 3 days incubation

SMILES	IC50
Cc1cc(Nc2ncnn3ccc(CN4CC[C@H](N)[C@@H](F)C4)c23)ccc1Oc1ccn2ncnc2c1 (single isomer, unassigned) [Example 24]	7 nM
Cc1cc(Nc2ncnn3ccc(CN4CC[C@H](N)[C@@H](F)C4)c23)ccc1Oc1ccn2ncnc2c1 (single isomer, unassigned) [Example 22]	13 nM
